Patent publication US12472235B2, “Treatment of diseases with sequential administration of an agent capable of up-regulating CD73 and glucocorticoids” (FARON PHARMACEUTICALS OY, priority 2021, dated 2025)

Assays:
[1] = system: MxA (myxovirus resistance protein A); experiment: INFORAAA clinical trial (NCT03119701), MxA response in patients after emergency aortic surgery; format: in vivo, human; details: 10 μg intravenously every 24 hours for up to 6 days, with or without simultaneous steroids such as a glucocorticoid, FIG. 1
From the text: (§1) The following Figures show CD73 (organ protective) and MxA (anti-viral) responses in patients treated with intravenous interferon beta for the prevention of SIRS leading to MODS, and death that have survived emergency aortic surgery (ClinicalTrials.gov; NCT03119701). More detailed,
MxA is a classical pharmacodynamic marker for IFN beta drug activity, but it only measures anti-viral activity.
(§2) In a clinical trial for the prevention of MODS after emergency aortic surgery (ClinicalTrials.gov; NCT03119701: Efficacy and Safety of FP-1201-Iyo (Interferon Beta-1a) in Prevention of Multi-Organ Failure on Patients After Open Surgery for a RAAA (INFORAAA)), 10 μg of interferon beta-1a or placebo has been intravenously administered to the patients with or without steroids, such as glucocorticoids, for up to 6 days every 24 hours. FP-1201-Iyo (Traumakine, Faron Pharmaceuticals Oy) comprises interferon beta-1a as an active ingredient.
(§3) FIGS. 1 and 2 show an up-regulation of MxA (myxovirus resistance protein A) and CD73 during the trial presented as the individual plots for each patient. CD73 responses/induction was often observed after 3 consecutive days of IFN beta-1a administration, sometimes longer administration was needed. […] FIG. 3 includes also patients treated with placebo.

CD73 = experiment: INFORAAA clinical trial (NCT03119701), CD73 response in patients after emergency aortic surgery; format: in vivo, human
From the text: as §1, §2, §3

[2] = INTEREST Trial (NCT02622724), intravenous IFN beta for the treatment of ARDS, mortality; format: in vivo, human
From the text: In the pre-clinical work and multiple clinical trials including major ongoing trials for COVID-19 but also clinical trials which have been conducted on the use of Interferon beta (IFN beta) in attempt to induce CD73 for organ protection; these trials include two trials for ARDS (ClinicalTrials.gov; NCT00789685 and NCT02622724) and a trial for the prevention of multiple organ dysfunction syndrome (MODS) after emergency aortic surgery (ClinicalTrials.gov; NCT03119701), have shown that the administration of glucocorticoids in the early phase of the diseases which led to SIRS increases mortality in patients. […] The 28-day mortality was not increased in patients that first received IFN beta and then glucocorticoids, even though glucocorticoid use overall was associated with worse survival.

[3] = ARDS patients, intravenous IFN beta with simultaneous glucocorticoids; as previously reported [2]; cited from earlier work

B1: interferon beta-1a (protein, UniProt P01574 22-187, looked up)
Interferon beta: MSYNLLGFLQRSSNFQCQKLLWQLNGRLEYCLKDRMNFDIPEEIKQLQQFQKEDAALTIYEMLQNIFAIFRQDSSSTGWNETIVENLLANVYHQINHLKTVLEEKLEKEDFTRGKLMSSLHLKRYYGRILHYLKAKEYSHCAWTIVRVEILRNFYFINRLTGYLRN
up-regulation of MxA [1]: up-regulation of MxA (myxovirus resistance protein A) observed in all patients
up-regulation of CD73 (CD73; 10 μg intravenously every 24 hours for up to 6 days, used with steroids such as glucocorticoids, FIG. 2): no up-regulation of CD73
time of administration until CD73 response/induction observed (CD73; 10 μg intravenously every 24 hours, sometimes longer administration was needed): ~3 consecutive days
mortality if glucocorticoids were used after IFN beta treatment ([2]; ARDS patients, intravenous IFN beta followed by glucocorticoids): significantly lower
28-day mortality in patients that first received IFN beta and then glucocorticoids ([2]; sequential IFN beta then glucocorticoids): not increased
28-day mortality, glucocorticoids with IFN beta compared to IFN beta without steroids [3]: significant
